Paper PMC8298264, “Function of cofactor Akirin2 in the regulation of gene expression in model human neutrophil-like HL60 cells” (Bioscience Reports, 2021)

Test system: human HL60 cells
Experiment: SWATH-MS proteomics, differential protein representation, akirin2 KO vs WT HL60 cells
Assay type: cell-based
Description: Total proteins were extracted from WT and akirin2 KO HL60 cells using the AllPrep DNA/RNA/Protein Mini Kit (Qiagen) and protein concentration was determined using the BCA Protein Assay with BSA (Sigma–Aldrich) as standard. Protein extracts (150 µg per sample, n=3 biological replicates) from each WT and KO cells were trypsin digested using the FASP Protein Digestion Kit (Expedeon Ltd., Abcam, Cambridge, U.K.) and sequencing grade trypsin (Promega, Madison, WI, U.S.A.) following manufacturer’s recommendations. The resulting peptides were finally desalted on to OMIX Pipette tips C18 (Agilent Technologies, Santa Clara, CA, U.S.A.), dried down and stored at −20 °C until mass spectrometry analysis. […] Three micrograms of each protein digest from the three biological replicates of WT and akirin2 KO HL60 cells were used for the generation of the reference spectral ion library as part of the SWATH-MS analysis.
Peptides were eluted in a 120-min gradient from 5 to 30% solvent B in solvent A followed by 15-min gradient from 30 to 60% solvent B in solvent A (solvent A: 0.1% formic acid in water, solvent B: 0.1% formic acid in acetonitrile) and directly injected into the mass spectrometer for analysis. For IDA experiments, the mass spectrometer was set to scanning full spectra (350–1400 m/z) using 250 ms accumulation time per spectrum, followed by up to 50 MS/MS scans (100–1500 m/z). Candidate ions with a charge state between +2 and +5 counts per second above a minimum threshold of 100 were isolated for fragmentation. One MS/MS spectrum was collected for 100 ms, before adding those precursor ions to the exclusion list for 15 s (mass spectrometer operated by Analyst TF 1.6, AB Sciex). Dynamic background subtraction was turned off. MS/MS analyses were recorded in high-sensitivity mode with rolling collision energy on and a collision energy spread of 5. For SWATH quantitative analysis, six independent samples (three replicates from WT and akirin2 KO HL60 cells, 5 µg each) were subjected to the cyclic DIA of mass spectra using the SWATH variable windows calculator (V 1.0, AB Sciex) and the SWATH acquisition method editor (AB Sciex), similar to established methods. […] For these experiments, a 50-ms survey scan (350–1400 m/z) was acquired at the beginning of each cycle, and SWATH–MS/MS spectra were collected from 100–1500 m/z for 70 ms at high-sensitivity mode, resulting in a cycle time of 3.6 s. Collision energy for each window was determined according to the calculation for a charge +2 ion-centered upon the window with a collision energy spread of 15. […] The detected protein threshold was set at 0.05. […] Global normalization was performed according to the Total Area Sums (TAS) of all detected proteins in the samples. […]

[1] = SWATH-MS, akirin2 KO vs WT HL60 cells, over-represented in KO
[2] = KO vs WT HL60 cells, sheet "Under-represented in KO"

B1: sp¦P15374¦UCHL3_HUMAN (protein, UniProt P15374 1-230, looked up)
Ubiquitin carboxyl-terminal …: MEGQRWLPLEANPEVTNQFLKQLGLHPNWQFVDVYGMDPELLSMVPRPVCAVLLLFPITEKYEVFRTEEEEKIKSQGQDVTSSVYFMKQTISNACGTIGLIHAIANNKDKMHFESGSTLKKFLEESVSMSPEERARYLENYDAIRVTHETSAHEGQTEAPSIDEKVDLHFIALVHVDGHLYELDGRKPFPINHGETSDETLLEDAIEVCKKFMERDPDELRFNAIALSAA
[1]
  Fold Change: 1.682
  Log (Fold Change): 0.2258

B2: sp¦O00425¦IF2B3_HUMAN (protein, UniProt O00425 1-579, looked up)
Insulin-like growth factor 2 …: MNKLYIGNLSENAAPSDLESIFKDAKIPVSGPFLVKTGYAFVDCPDESWALKAIEALSGKIELHGKPIEVEHSVPKRQRIRKLQIRNIPPHLQWEVLDSLLVQYGVVESCEQVNTDSETAVVNVTYSSKDQARQALDKLNGFQLENFTLKVAYIPDEMAAQQNPLQQPRGRRGLGQRGSSRQGSPGSVSKQKPCDLPLRLLVPTQFVGAIIGKEGATIRNITKQTQSKIDVHRKENAGAAEKSITILSTPEGTSAACKSILEIMHKEAQDIKFTEEIPLKILAHNNFVGRLIGKEGRNLKKIEQDTDTKITISPLQELTLYNPERTITVKGNVETCAKAEEEIMKKIRESYENDIASMNLQAHLIPGLNLNALGLFPPTSGMPPPTSGPPSAMTPPYPQFEQSETETVHLFIPALSVGAIIGKQGQHIKQLSRFAGASIKIAPAEAPDAKVRMVIITGPPEAQFKAQGRIYGKIKEENFVSPKEEVKLEAHIRVPSFAAGRVIGKGGKTVNELQNLSSAEVVVPRDQTPDENDQVVVKITGHFYACQVAQRKIQEILTQVKQHQQQKALQSGPPQSRRK
[2]
  Fold Change: 0.514
  Log (Fold Change): -0.289
